Patent US20090227607A1, “DEAZAPURINES USEFUL AS INHIBITORS OF JANUS KINASES” (priority 2006, published 2009)

Amino acid sequences for entries named in this document (tags omitted).
UniProt P52333, whole entry: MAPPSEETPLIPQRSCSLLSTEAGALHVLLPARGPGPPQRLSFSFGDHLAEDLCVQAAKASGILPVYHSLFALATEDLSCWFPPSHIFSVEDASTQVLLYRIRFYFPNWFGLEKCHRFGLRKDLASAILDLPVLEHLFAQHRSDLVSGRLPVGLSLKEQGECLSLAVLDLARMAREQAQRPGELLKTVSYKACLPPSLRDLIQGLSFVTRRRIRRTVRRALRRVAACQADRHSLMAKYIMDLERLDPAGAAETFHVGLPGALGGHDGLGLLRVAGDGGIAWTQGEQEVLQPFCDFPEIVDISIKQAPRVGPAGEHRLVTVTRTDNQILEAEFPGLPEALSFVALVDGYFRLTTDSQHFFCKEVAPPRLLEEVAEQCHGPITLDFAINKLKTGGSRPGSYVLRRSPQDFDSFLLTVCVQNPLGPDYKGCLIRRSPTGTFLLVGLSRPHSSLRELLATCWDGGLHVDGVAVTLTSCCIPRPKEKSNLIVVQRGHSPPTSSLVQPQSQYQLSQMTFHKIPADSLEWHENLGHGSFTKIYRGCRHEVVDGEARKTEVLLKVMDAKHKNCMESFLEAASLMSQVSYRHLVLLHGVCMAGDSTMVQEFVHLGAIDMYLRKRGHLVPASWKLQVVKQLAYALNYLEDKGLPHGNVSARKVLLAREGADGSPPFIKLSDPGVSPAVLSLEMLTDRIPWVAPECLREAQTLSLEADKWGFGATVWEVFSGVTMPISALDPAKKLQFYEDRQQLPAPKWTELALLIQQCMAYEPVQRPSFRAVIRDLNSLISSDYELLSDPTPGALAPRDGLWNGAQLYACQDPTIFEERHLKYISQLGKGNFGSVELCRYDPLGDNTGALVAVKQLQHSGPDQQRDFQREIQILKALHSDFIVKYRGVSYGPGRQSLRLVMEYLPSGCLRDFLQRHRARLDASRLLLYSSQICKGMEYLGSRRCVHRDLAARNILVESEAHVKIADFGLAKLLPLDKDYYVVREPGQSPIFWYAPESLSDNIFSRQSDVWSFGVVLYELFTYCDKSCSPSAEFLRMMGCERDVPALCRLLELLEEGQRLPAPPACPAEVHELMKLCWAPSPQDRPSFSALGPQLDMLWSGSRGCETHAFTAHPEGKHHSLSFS
UniProt O60674, whole entry: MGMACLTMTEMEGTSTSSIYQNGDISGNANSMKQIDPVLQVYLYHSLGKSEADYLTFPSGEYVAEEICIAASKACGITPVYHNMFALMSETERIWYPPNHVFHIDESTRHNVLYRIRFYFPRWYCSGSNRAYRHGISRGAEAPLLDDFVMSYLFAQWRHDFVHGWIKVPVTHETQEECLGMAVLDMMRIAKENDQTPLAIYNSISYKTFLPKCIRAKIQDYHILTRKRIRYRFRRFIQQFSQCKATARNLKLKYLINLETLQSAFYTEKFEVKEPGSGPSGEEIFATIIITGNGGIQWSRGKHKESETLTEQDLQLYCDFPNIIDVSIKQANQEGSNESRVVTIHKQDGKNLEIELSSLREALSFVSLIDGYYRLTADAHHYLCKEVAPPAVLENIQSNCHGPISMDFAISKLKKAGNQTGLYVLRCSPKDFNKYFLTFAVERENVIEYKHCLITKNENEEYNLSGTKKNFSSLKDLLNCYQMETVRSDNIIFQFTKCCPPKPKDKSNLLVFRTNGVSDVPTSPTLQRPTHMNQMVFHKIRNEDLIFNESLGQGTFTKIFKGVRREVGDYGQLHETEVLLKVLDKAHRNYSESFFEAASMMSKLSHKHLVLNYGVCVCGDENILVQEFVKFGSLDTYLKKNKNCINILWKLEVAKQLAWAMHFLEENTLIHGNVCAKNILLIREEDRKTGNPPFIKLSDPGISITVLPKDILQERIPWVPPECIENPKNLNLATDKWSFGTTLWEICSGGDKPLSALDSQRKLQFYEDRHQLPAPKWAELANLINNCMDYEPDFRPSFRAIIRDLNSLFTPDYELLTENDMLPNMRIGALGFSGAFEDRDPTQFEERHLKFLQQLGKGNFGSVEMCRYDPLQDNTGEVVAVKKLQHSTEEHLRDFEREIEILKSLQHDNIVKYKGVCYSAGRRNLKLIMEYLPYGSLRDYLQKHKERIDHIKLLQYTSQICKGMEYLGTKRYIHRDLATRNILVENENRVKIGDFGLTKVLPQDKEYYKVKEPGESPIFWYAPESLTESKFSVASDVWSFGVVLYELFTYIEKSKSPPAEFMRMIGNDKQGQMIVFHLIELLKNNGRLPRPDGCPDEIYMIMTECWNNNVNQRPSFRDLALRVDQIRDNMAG

Columns and labels:
[1] = target: JAK3 (Homo sapiens, UniProt P52333); experiment: JAK3 Inhibition Assay; conditions: read-out: JAK3 enzyme inhibition data (Ki); 1 μM poly(Glu)4Tyr, 5 μM ATP, 1 nM JAK3, 25° C.
[2] = target: JAK-2 enzyme (Homo sapiens, UniProt O60674); experiment: JAK2 Inhibition Assay; conditions: read-out: JAK2 enzyme inhibition data (Ki); 15 μM poly(Glu)4Tyr, 12 μM ATP, 25° C.

COC(=O)C1CCCCC1C(=O)Nc1nc(-c2ccnc3[nH]ccc23)cs1 (single isomer, unassigned)
Ki [1]: 100 to 500 nM
Ki [2]: < 100 nM

O=C(O)c1ccccc1C(=O)Nc1nc(-c2ccnc3[nH]ccc23)cs1
Ki [1]: 500 to 5000 nM
Ki [2]: 100 to 500 nM

Nc1nc(-c2ccnc3[nH]ccc23)cs1
Ki [1]: 500 to 5000 nM
Ki [2]: 500 to 5000 nM

NC1CCC(C(=O)Nc2nc(-c3ccnc4[nH]ccc34)cs2)CC1 (centres unmarked)
Ki [1]: > 5000 nM
Ki [2]: 500 to 5000 nM

COC(=O)CC(C)(C)CC(=O)Nc1nc(-c2ccnc3[nH]ccc23)cs1
Ki [1]: 100 to 500 nM
Ki [2]: < 100 nM

COC(=O)CC1(CC(=O)Nc2nc(-c3ccnc4[nH]ccc34)cs2)CCCC1
Ki [1]: 100 to 500 nM
Ki [2]: < 100 nM

COC(=O)[C@H]1C[C@H]1C(=O)Nc1nc(-c2ccnc3[nH]ccc23)cs1 (relative stereo)
Ki [1]: 100 to 500 nM
Ki [2]: < 100 nM

COC(=O)CCC(=O)Nc1nc(-c2ccnc3[nH]ccc23)cs1
Ki [1]: 100 to 500 nM
Ki [2]: 100 to 500 nM

O=C(O)[C@H]1C[C@H]1C(=O)Nc1nc(-c2ccnc3[nH]ccc23)cs1 (relative stereo)
Ki [1]: 500 to 5000 nM
Ki [2]: 500 to 5000 nM

COC(=O)c1ccccc1C(=O)Nc1nc(-c2ccnc3[nH]ccc23)cs1
Ki [1]: 100 to 500 nM
Ki [2]: 100 to 500 nM
